pIC50: −log10 of the molar value.
These compounds were tested against SHANK1 PDZ (Homo sapiens, UniProt Q9Y566) (assay: Fluorescence anisotropy competition assay (FITC-Ahx-TRL-COOH tracer)). Settings: read-out: IC50 (Fig. S7-S9, S11, S12, hybrids selected for validation from single point screens); x-A001 incubated with 5 equiv aldehyde in presence of protein for 24 h, then 10 nM FITC-Ahx-TRL-COOH; 50 mM NH4Ac pH 6.5, 10 mM aniline; SHANK1 PDZ 1 M.
Format: binding

Amino acid sequences for entries named in this document (tags omitted). Residues count along the entry.
UniProt Q9Y566, 656-762 limits assumed: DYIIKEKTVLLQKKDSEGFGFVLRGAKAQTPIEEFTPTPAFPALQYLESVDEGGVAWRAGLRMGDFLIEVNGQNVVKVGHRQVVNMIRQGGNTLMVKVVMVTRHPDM

Compound	pIC50
CC(C)C[C@H](NC(=O)[C@H](CCCNC(=N)N)NC(=O)[C@@H](NC(=O)CCC(=O)N/N=C/c1ccc(-c2cc(C(=O)O)ccc2Cl)o1)[C@@H](C)O)C(=O)O	4.86
CC(C)C[C@H](NC(=O)[C@H](CCCNC(=N)N)NC(=O)[C@@H](NC(=O)CCCC(=O)N/N=C/c1ccc(-c2cc(C(=O)O)ccc2Cl)o1)[C@@H](C)O)C(=O)O	5.38
Cc1cc2c(s1)c(/C=N/NC(=O)CCC(=O)N[C@H](C(=O)N[C@@H](CCCNC(=N)N)C(=O)N[C@@H](CC(C)C)C(=O)O)[C@@H](C)O)c(C(=O)O)n2C	4.60
CC(C)C[C@H](NC(=O)[C@H](CCCNC(=N)N)NC(=O)[C@@H](NC(=O)CCC(=O)N/N=C/c1ccc(C(=O)O)o1)[C@@H](C)O)C(=O)O	4.90
Cc1cc2c(s1)c(/C=N/NC(=O)CCCC(=O)N[C@H](C(=O)N[C@@H](CCCNC(=N)N)C(=O)N[C@@H](CC(C)C)C(=O)O)[C@@H](C)O)c(C(=O)O)n2C	5.29
CC(C)C[C@H](NC(=O)[C@H](CCCNC(=N)N)NC(=O)[C@@H](NC(=O)CCC(=O)N/N=C/c1ccccc1-c1ccccc1C(=O)O)[C@@H](C)O)C(=O)O	4.80
CC(C)C[C@H](NC(=O)[C@H](CCCNC(=N)N)NC(=O)[C@@H](NC(=O)CCCC(=O)N/N=C/c1ccc(C(=O)O)o1)[C@@H](C)O)C(=O)O	5.32

From PMC8179271, “Identification of β-strand mediated protein–protein interaction inhibitors using ligand-directed fragment ligation” (Chemical Science, 2021)
